From PMC9561612

By UniProt entry, the sequences of proteins in these tests, tags left out. Residues count along the entry.
UniProt P61073, whole entry: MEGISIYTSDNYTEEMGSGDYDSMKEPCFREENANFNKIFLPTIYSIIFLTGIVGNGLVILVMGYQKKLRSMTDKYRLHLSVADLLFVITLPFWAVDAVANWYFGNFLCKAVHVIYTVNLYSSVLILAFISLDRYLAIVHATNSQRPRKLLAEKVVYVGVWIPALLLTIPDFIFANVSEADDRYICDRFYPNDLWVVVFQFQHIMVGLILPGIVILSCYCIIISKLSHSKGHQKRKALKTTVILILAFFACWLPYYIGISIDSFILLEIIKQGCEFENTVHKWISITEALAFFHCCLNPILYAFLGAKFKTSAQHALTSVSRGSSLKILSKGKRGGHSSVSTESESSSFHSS
UniProt P48061, 22-89: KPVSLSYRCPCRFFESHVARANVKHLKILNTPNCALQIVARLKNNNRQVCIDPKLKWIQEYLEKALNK

Molecular target: CXCR4 receptor (human (endogenous in MDA-MB-231)) (UniProt P61073)

cytoplasmic Ca2+ release in MDA-MB-231 cells (Fura-2), EC50 for wild-type CXCL12: 1 nM
Substance: wild-type CXCL12 (CXCL12wt) (from UniProt P48061-2 22-89) (natural protein)
